In US11760795B2, “Monoclonal antibodies to growth and differentiation factor 15 (GDF-15), and uses thereof for treating cancer cachexia and cancer” (JULIUS-MAXIMILIANS-UNIVERSITÄT WÜRZBURG, priority 2014, dated 2023):

Target: T1, human GDF-15 (Homo sapiens, UniProt Q99988)
T1 sequence (Q99988 with tags, fused parts or gaps limits assumed): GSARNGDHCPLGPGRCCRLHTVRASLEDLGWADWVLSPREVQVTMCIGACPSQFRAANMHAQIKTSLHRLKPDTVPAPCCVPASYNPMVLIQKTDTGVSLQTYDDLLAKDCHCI
Test: Kd determination by Surface Acoustic Wave (SAW) gold chip biosensors
Assay type: binding
Details: murine B1-23 stabilized with 0.2% BSA, H1L5 as CHO supernatant
Source text: Determination of Kd values of anti-GDF-15 antibodies. The Kd values of different anti-GDF-15 antibodies were compared using Surface Acoustic Wave (SAW) gold chip biosensors technology (SAW Instruments GmbH, Schwertberger Str. 16, D-53177 Bonn, Germany):
The murine antibody (B1-23) as well as the chimeric B1-23 antibody were present in purified form. The H1L5 humanized B1-23 antibody was a serum-free CHO cell culture supernatant.

## Herceptin: control antibody in SAW Kd assay
  Kd value (nM): No binding
